One assay concerns SCID/J mice. Put plainly: Intramuscular implantation, ectopic bone formation. It is filed as in vivo, mouse. The following applies: 14, 28 (and 56) days post intramuscular implantation. The procedure: To test in vivo bone formation, the bioactive scaffolds (2 groups) were individually implanted intramuscularly in both hind limbs in 2 month-old SCID/J mice. Ectopic bone formation was monitored biweekly using micro-computed tomography (micro-CT). Three-point bending tests were performed on the implants to estimate mechanical property of implants.
(§1) Scaffold fabrication using VL-PSL was carried out as described herein. ALP staining and osteocalcin immunohistochemistry (IHC) analysis were performed. To test in vivo bone formation, the bioactive scaffolds (2 groups) were individually implanted intramuscularly in both hind limbs in 2 month-old SCID/J mice. Ectopic bone formation was monitored biweekly using micro-CT.

Another assay concerns hBMSCs. Put plainly: In vitro osteogenesis of hBMSC-laden VL-PSL gelatin constructs (BMP-2 ELISA, ALP, osteocalcin IHC). It is filed as cell-based, human. The following applies: in vitro culture, day 56. The procedure: Scaffold 16 fabrication using VL-PSL can be carried out using lithium phenyl-2,4,6-trimethyl benzoylphosphinate (LAP) as a photoinitiator. Alkaline phosphatase (ALP) staining (Sigma) and osteocalcin immunohistochemistry (IHC) analysis can be performed.
as §1
A general note: ELISA stands for enzyme-linked immunosorbent assay.

For “bone morphogenetic protein-2 [BMP-2 protein]”, in the assay on SCID/J mice, the “micro-CT mineralized areas (ectopic bone)” value is “not seen”. Moreover, the “ALP staining, osteocalcin immunostaining and osteogenesis” value in the assay with hBMSCs is “inferior and poor”.

Source of the values: US20160129155A1, “MUSCULOSKELETAL TISSUE FABRICATION” (University of Pittsburgh - Of the Commonwealth System of …, priority 2014, published 2016).
